Assay results: publication PMC12142581

Key:
[1] = system: MK-801-induced hyperlocomotion; experiment: MK-801-induced hyperlocomotion; settings: PO, 60 min pretreatment, rat
[2] = In vitro plasma protein binding; settings: average across test concentrations
[3] = Metabolic stability in liver microsomes; settings: for clearance / intrinsic clearance: up to 1 μM; for CLhep: microsomes
[4] = Compound specific parameters (logD, pKa)
Ames strains = experiment: 4-strain Ames assay (with and without S9)
[5] = system: amphetamine-induced hyperlocomotion; experiment: Amphetamine-induced hyperlocomotion (AHL); settings: for brain:plasma mean Kp / brain:plasma mean Kp,uu / mean C brain / mean C brain,u / mean C plasma / mean C plasma,u: 1.5 h
[6] = Metabolic stability in cryopreserved hepatocytes; settings: for clearance / intrinsic clearance: up to 1 μM; for CLhep: hepatocytes
cardiac ion channels = experiment: Cardiac Ion Channel Panel (QPatch HT), whole panel; settings: 10 μM
[7] = Phase 1 and phase 2 metabolism, liver microsomes with alamethicin; settings: for % Remaining T=60 / CLhep: 1 µM
CYP1A2 = experiment: CYP induction, gene expression (mRNA) in cryopreserved human hepatocytes
CYP2B6 = experiment: as above

Cc1nnc2sc3c(NCc4ccc(C(C)(C)O)cc4)ncnc3c2c1C
Thermodynamic solubility, FaSSIF (Thermodynamic solubility; FaSSIF): 7.7 µg/mL
Thermodynamic solubility, FeSSIF (Thermodynamic solubility; FeSSIF): 37 µg/mL
Thermodynamic solubility, SGF (Thermodynamic solubility; SGF): 130 µg/mL
Thermodynamic solubility (Thermodynamic solubility; first of four values (pH7.4 per footnote b186)): 1.5 µg/mL
MED, MK-801-induced hyperlocomotion [1]: 3 mg/kg
In vitro fup ([2]; dog): 3.8 % free
In vitro fup ([2]; human): 0.42 % free
In vitro fup ([2]; minipig): 1.63 % free
In vitro fup ([2]; monkey): 0.76 % free
In vitro fup ([2]; rat): 0.78 % free
clearance ([3]; NHP microsomes): 29.0 mL/min/kg
clearance ([3]; dog microsomes): 15.5 mL/min/kg
intrinsic clearance ([3]; human liver microsomes): 5.17 mL/min/kg
CLhep ([3]; dog, 0.1 µM): 23.7 ± 0.3 mL/min/kg
CLhep ([3]; dog, 0.3 µM): 19.3 ± 0.1 mL/min/kg
CLhep ([3]; dog, 1 µM): 15.5 ± 0.2 mL/min/kg
CLhep ([3]; human, 0.1 µM): 5.17 ± 0.20 mL/min/kg
CLhep ([3]; human, 0.3 µM): 6.17 ± 0.11 mL/min/kg
CLhep ([3]; human, 1 µM): 5.17 ± 0.10 mL/min/kg
CLhep ([3]; monkey, 0.1 µM): 30.0 ± 0.9 mL/min/kg
CLhep ([3]; monkey, 0.3 µM): 29.7 ± 0.5 mL/min/kg
CLhep ([3]; monkey, 1 µM): 29.0 ± 0.4 mL/min/kg
CLhep ([3]; rat, 0.1 µM): 35.8 ± 0.1 mL/min/kg
CLhep ([3]; rat, 0.3 µM): 28.8 ± 0.3 mL/min/kg
CLhep ([3]; rat, 1 µM): 25.2 ± 0.3 mL/min/kg
intrinsic clearance ([3]; rat liver microsomes): 35.8 mL/min/kg
logD [4]: 3.5
Ames result (Ames strains): negative
mean reversal of AHL ([5]; 0.1 mg/kg PO): 8.1%
brain:plasma mean Kp ([5]; 0.1 mg/kg PO): 0.26
brain:plasma mean Kp,uu ([5]; 0.1 mg/kg PO): 0.18
mean C brain ([5]; 0.1 mg/kg PO): 0.05 µM
mean C brain,u ([5]; 0.1 mg/kg PO): 0.71 nM
mean C plasma ([5]; 0.1 mg/kg PO): 0.19 µM
mean C plasma,u ([5]; 0.1 mg/kg PO): 4.03 nM
mean reversal of AHL ([5]; 0.3 mg/kg PO): 33%
brain:plasma mean Kp ([5]; 0.3 mg/kg PO): 0.32
brain:plasma mean Kp,uu ([5]; 0.3 mg/kg PO): 0.21
mean C brain ([5]; 0.3 mg/kg PO): 0.25 µM
mean C brain,u ([5]; 0.3 mg/kg PO): 3.44 nM
mean C plasma ([5]; 0.3 mg/kg PO): 0.78 µM
mean C plasma,u ([5]; 0.3 mg/kg PO): 16.3 nM
mean reversal of AHL ([5]; 0.56 mg/kg PO): 26%
brain:plasma mean Kp ([5]; 0.56 mg/kg PO): 0.29
brain:plasma mean Kp,uu ([5]; 0.56 mg/kg PO): 0.19
mean C brain ([5]; 0.56 mg/kg PO): 0.33 µM
mean C brain,u ([5]; 0.56 mg/kg PO): 4.65 nM
mean C plasma ([5]; 0.56 mg/kg PO): 1.14 µM
mean C plasma,u ([5]; 0.56 mg/kg PO): 23.9 nM
mean reversal of AHL ([5]; 1 mg/kg PO): 51%
brain:plasma mean Kp ([5]; 1 mg/kg PO): 0.34
brain:plasma mean Kp,uu ([5]; 1 mg/kg PO): 0.23
mean C brain ([5]; 1 mg/kg PO): 0.68 µM
mean C brain,u ([5]; 1 mg/kg PO): 9.58 nM
mean C plasma ([5]; 1 mg/kg PO): 1.99 µM
mean C plasma,u ([5]; 1 mg/kg PO): 41.8 nM
brain:plasma mean Kp ([5]; 3 mg/kg PO): 0.3
brain:plasma mean Kp,uu ([5]; 3 mg/kg PO): 0.2
mean C brain ([5]; 3 mg/kg PO): 2.07 µM
mean C brain,u ([5]; 3 mg/kg PO): 29.0 nM
mean C plasma ([5]; 3 mg/kg PO): 6.89 µM
mean C plasma,u ([5]; 3 mg/kg PO): 145 nM
mean reversal of AHL ([5]; 10 mg/kg PO): 63%
brain:plasma mean Kp ([5]; 10 mg/kg PO): 0.34
brain:plasma mean Kp,uu ([5]; 10 mg/kg PO): 0.23
mean C brain ([5]; 10 mg/kg PO): 4.90 µM
mean C plasma ([5]; 10 mg/kg PO): 14.2 µM
mean C plasma,u ([5]; 10 mg/kg PO): 299 nM
mean C brain,u ([5]; 10 mg/kg PO, listed as VU6008055): 69 nM and 68.6 nM
MED, AHL ([5]; PO, 30 min pretreatment, rat): 0.3 mg/kg
Mean % Reversal of AHL ([5]; single acute dose 3 mg/kg p.o., listed as VU6008055, 3 mg/kg): 45.7%
clearance ([6]; NHP hepatocytes): 23.5 mL/min/kg
clearance ([6]; dog hepatocytes): 38.3 mL/min/kg
CLhep ([6]; dog, 0.1 µM): 38.2 ± 1.5 mL/min/kg
CLhep ([6]; dog, 0.3 µM): 38.8 ± 2.1 mL/min/kg
CLhep ([6]; dog, 1 µM): 38.3 ± 2.0 mL/min/kg
CLhep ([6]; human, 0.1 µM): < 5.17 mL/min/kg
CLhep ([6]; human, 0.3 µM): < 5.17 mL/min/kg
CLhep ([6]; human, 1 µM): < 5.17 mL/min/kg
CLhep ([6]; minipig, 0.1 µM): 14.8 ± 0.02 mL/min/kg
CLhep ([6]; minipig, 0.3 µM): 13.7 ± 0.2 mL/min/kg
CLhep ([6]; minipig, 1 µM): 14.3 ± 0.5 mL/min/kg
CLhep ([6]; monkey, 0.1 µM): 23.5 ± 0.6 mL/min/kg
CLhep ([6]; monkey, 0.3 µM): 22.0 ± 0.3 mL/min/kg
CLhep ([6]; monkey, 1 µM): 23.5 ± 0.6 mL/min/kg
CLhep ([6]; rat, 0.1 µM): 25.2 ± 0.6 mL/min/kg
CLhep ([6]; rat, 0.3 µM): 21.8 ± 0.5 mL/min/kg
CLhep ([6]; rat, 1 µM): 25.2 ± 0.4 mL/min/kg
intrinsic clearance ([6]; human hepatocytes): < 5.17 mL/min/kg
intrinsic clearance ([6]; minipig hepatocytes): 14.8 mL/min/kg
intrinsic clearance ([6]; rat hepatocytes): 25.2 mL/min/kg
inhibition across cardiac ion channel panel (cardiac ion channels): < 13%
% remaining after 1 h ([7]; human liver microsomes, regardless of cofactor): > 85%
% Remaining T=60 ([7]; human, with NADPH): 94%
CLhep ([7]; human, with NADPH): < 4.70 mL/min/kg
% Remaining T=60 ([7]; human, with NADPH and UDPGA): 91%
CLhep ([7]; human, with NADPH and UDPGA): < 4.70 mL/min/kg
% Remaining T=60 ([7]; human, with UDPGA): 110%
CLhep ([7]; human, with UDPGA): < 4.70 mL/min/kg
% Remaining T=60 ([7]; monkey, with NADPH): 17%
CLhep ([7]; monkey, with NADPH): 28.7 mL/min/kg
% Remaining T=60 ([7]; monkey, with NADPH and UDPGA): 25%
CLhep ([7]; monkey, with NADPH and UDPGA): 26.3 mL/min/kg
% Remaining T=60 ([7]; monkey, with UDPGA): 80%
CLhep ([7]; monkey, with UDPGA): 9.80 mL/min/kg
CYP1A2 gene expression (CYP1A2; 0.1 µM, donor 1): 0.96 ± 0.08 fold of DMSO control
CYP1A2 gene expression (CYP1A2; 0.1 µM, donor 2): 1.12 ± 0.09 fold of DMSO control
CYP1A2 gene expression (CYP1A2; 0.1 µM, donor 3): 1.41 ± 0.23 fold of DMSO control
CYP1A2 gene expression (CYP1A2; 0.3 µM, donor 1): 1.37 ± 0.36 fold of DMSO control
CYP1A2 gene expression (CYP1A2; 0.3 µM, donor 2): 1.18 ± 0.08 fold of DMSO control
CYP1A2 gene expression (CYP1A2; 0.3 µM, donor 3): 1.69 ± 0.22 fold of DMSO control
CYP1A2 gene expression (CYP1A2; 1 µM, donor 1): 1.22 ± 0.05 fold of DMSO control
CYP1A2 gene expression (CYP1A2; 1 µM, donor 2): 1.08 ± 0.04 fold of DMSO control
CYP1A2 gene expression (CYP1A2; 1 µM, donor 3): 1.24 ± 0.05 fold of DMSO control
CYP1A2 gene expression (CYP1A2; 3 µM, donor 1): 1.11 ± 0.06 fold of DMSO control
CYP1A2 gene expression (CYP1A2; 3 µM, donor 2): 0.75 ± 0.06 fold of DMSO control
CYP1A2 gene expression (CYP1A2; 3 µM, donor 3): 1.63 ± 0.18 fold of DMSO control
CYP1A2 gene expression (CYP1A2; 10 µM, donor 1): 0.75 ± 0.07 fold of DMSO control
CYP1A2 gene expression (CYP1A2; 10 µM, donor 2): 0.54 ± 0.03 fold of DMSO control
CYP1A2 gene expression (CYP1A2; 10 µM, donor 3): 0.87 ± 0.05 fold of DMSO control
CYP2B6 gene expression (CYP2B6; 0.1 µM, donor 1): 0.97 ± 0.10 fold of DMSO control
CYP2B6 gene expression (CYP2B6; 0.1 µM, donor 2): 0.86 ± 0.13 fold of DMSO control
CYP2B6 gene expression (CYP2B6; 0.1 µM, donor 3): 1.54 ± 0.20 fold of DMSO control
CYP2B6 gene expression (CYP2B6; 0.3 µM, donor 1): 1.36 ± 0.46 fold of DMSO control
CYP2B6 gene expression (CYP2B6; 0.3 µM, donor 2): 0.82 ± 0.13 fold of DMSO control
CYP2B6 gene expression (CYP2B6; 0.3 µM, donor 3): 1.73 ± 0.33 fold of DMSO control
CYP2B6 gene expression (CYP2B6; 1 µM, donor 1): 1.45 ± 0.35 fold of DMSO control
CYP2B6 gene expression (CYP2B6; 1 µM, donor 2): 0.88 ± 0.14 fold of DMSO control
CYP2B6 gene expression (CYP2B6; 1 µM, donor 3): 1.51 ± 0.04 fold of DMSO control
CYP2B6 gene expression (CYP2B6; 3 µM, donor 1): 1.41 ± 0.32 fold of DMSO control
CYP2B6 gene expression (CYP2B6; 3 µM, donor 2): 0.75 ± 0.05 fold of DMSO control
CYP2B6 gene expression (CYP2B6; 3 µM, donor 3): 2.43 ± 0.09 fold of DMSO control
CYP2B6 gene expression (CYP2B6; 10 µM, donor 2): 0.43 ± 0.03 fold of DMSO control
CYP2B6 gene expression (CYP2B6; 10 µM, donor 3): 1.93 ± 0.07 fold of DMSO control

Several values for one entry are separate records, joined by “and”; a condition that tells them apart may be missing. Equal entries are not always repeated.
